Target: T1, xanthine oxidase (grade I from buttermilk) (Bos taurus, UniProt P80457)
T1 construct: XOD (xanthine oxidase) (grade I from buttermilk); from tissue; host or cells: buttermilk
Test: Xanthine oxidase inhibition (xanthine oxidase assay), uric acid production
Format: biochemical
Details: xanthine substrate, pH 7.8, absorbance at 295 nm
Method: Xanthine Oxidase Inhibition (Xanthine Oxidase Assay)
The activity of xanthine oxidase is determined by means of the uric acid production.
This solution is maintained on ice during the entire experiment to prevent changes in the activity of the enzyme.
724 μl phophate buffer pH=7.8
10 μl DMSO or the substance to be tested dissolved in DMSO
The reaction is started by addition of 66 μl of the enzyme solution to the above described assay mixture. […] If the reaction is linear, the result is expressed as Δ absorbance/min. […] The maximum activity is the activity of the enzyme, when no substance is dissolved in DMSO.

Chains of the proteins cited; added tags and fusions are not shown.
UniProt P80457, whole entry: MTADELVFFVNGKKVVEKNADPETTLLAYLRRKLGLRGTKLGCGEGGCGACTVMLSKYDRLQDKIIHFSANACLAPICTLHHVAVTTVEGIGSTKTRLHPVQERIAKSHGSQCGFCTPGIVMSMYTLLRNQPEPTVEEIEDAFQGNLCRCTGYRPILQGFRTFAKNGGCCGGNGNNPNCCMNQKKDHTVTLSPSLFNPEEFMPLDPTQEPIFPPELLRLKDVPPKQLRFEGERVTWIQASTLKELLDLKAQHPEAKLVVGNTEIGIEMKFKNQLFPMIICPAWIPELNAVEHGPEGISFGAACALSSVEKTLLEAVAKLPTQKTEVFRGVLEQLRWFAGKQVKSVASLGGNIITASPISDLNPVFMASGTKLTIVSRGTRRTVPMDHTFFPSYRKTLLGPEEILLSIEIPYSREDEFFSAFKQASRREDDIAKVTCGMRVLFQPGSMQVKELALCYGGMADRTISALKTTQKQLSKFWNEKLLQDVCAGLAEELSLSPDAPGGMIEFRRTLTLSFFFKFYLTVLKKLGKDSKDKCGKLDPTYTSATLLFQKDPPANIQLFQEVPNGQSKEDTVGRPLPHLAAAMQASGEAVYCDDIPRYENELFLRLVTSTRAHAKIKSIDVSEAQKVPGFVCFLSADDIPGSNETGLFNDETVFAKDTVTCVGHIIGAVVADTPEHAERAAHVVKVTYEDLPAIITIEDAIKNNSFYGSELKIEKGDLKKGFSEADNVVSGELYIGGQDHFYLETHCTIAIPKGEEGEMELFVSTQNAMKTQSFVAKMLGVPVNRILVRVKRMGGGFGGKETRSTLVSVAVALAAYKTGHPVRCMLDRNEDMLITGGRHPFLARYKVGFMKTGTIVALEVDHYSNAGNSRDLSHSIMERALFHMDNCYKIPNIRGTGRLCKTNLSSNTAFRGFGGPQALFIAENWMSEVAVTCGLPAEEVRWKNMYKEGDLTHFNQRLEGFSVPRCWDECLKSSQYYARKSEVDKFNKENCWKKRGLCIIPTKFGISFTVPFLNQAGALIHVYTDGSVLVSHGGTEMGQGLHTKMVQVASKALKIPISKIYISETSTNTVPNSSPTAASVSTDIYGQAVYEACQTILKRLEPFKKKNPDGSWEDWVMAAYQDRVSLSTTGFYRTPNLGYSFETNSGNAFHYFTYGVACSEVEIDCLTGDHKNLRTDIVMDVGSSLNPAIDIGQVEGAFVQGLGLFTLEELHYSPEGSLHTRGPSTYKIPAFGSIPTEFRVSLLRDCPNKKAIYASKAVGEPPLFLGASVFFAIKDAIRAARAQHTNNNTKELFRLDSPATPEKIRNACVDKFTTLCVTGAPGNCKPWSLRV

Substance: Catechin
- IC-50 xanthine oxidase inhibition: not detectable

From patent US20060270615A1, “Compositions suitable for the treatment of damage caused by ischemia/reper-fusion or oxidative stress” (N.V. NUTRICIA, priority 2000, published 2006)
